Common to all, as to format: in vivo
Assay [1] relates to locomotor activity. In words: Decreased Locomotor Activity (L.M.A.), mouse. The note with it: po, minimal effective dose.
The test system of assay [2] is locomotor activity. In words: Decreased Locomotor Activity (L.M.A.), rat. The following applies: po, minimal effective dose.
Assay [3] has as its system eyelid closure (ptosis). In words: Ptosis, mouse. The note with it: po, passive ptosis.
For assay [4], the system named is eyelid closure (ptosis). Put plainly: Ptosis, rat. The note with it: po, passive ptosis.
For assay [5], the system named is catalepsy. In words: Catalepsy, mouse. The note with it: po.
Assay [6] deals with catalepsy. In words: Catalepsy, rat. The following applies: po.
Assay [7] has as its system TBZ-induced ptosis. Put plainly: Tetrabenazine Antagonism (T.B.Z.A.), mouse. The following applies: po, TBZ 40 mg/kg s.c. one hour after compound.
For assay [8], the system named is TBZ-induced ptosis. Put plainly: Tetrabenazine Antagonism (T.B.Z.A.), rat. The following applies: po, TBZ 40 mg/kg s.c. one hour after compound.
For assay [9], the system named is fear / feeding in approach-avoidance conflict. In words: Rat Conflict (Approach-Avoidance) Test. The note with it: po, after 1 or 2 hours.
Assay [10] deals with conditioned avoidance response. Put plainly: Conditioned Avoidance Response (C.A.R.), mouse. The following applies: po, block of C.A.R. in 50% of animals, 1, 2, and 4 hours.
In assay [11] the test system is conditioned avoidance response. Put plainly: Conditioned Avoidance Response (C.A.R.), rat. The following applies: po, block of C.A.R. in 50% of animals, 1, 2, and 4 hours.
Assay [12] has as its system conditioned avoidance response. Put plainly: Dog Conditioned Avoidance Response (C.A.R.). The following applies: po, 5 or more incorrect responses in 50% of animals, 1, 2, and 4 hours.
A further assay relates to taming. In words: Rhesus Monkey Taming Effects. The note with it: po.
In assay [13] the test system is phenyl-p-benzoquinone-induced writhing. Put plainly: Phenylquinone Writhing (P.Q.W.). The following applies: mouse, po; phenyl-p-benzoquinone 2.5 mg/kg i.p. 30 minutes after compound. In general terms: Writhing tests count abdominal constrictions after an irritant is injected.

These results are taken from US3932650A, “Trans-octahydropyridoindolobenzazepines as central nervous system depressants” (E. I. Du Pont de Nemours & Company, priority 1973, dated 1976).

Where only a bound is given, the exact number is not on record here.

Consider `CCN1CC[C@@H]2[C@@H](C1)c1cccc3c1N2c1ccccc1CC3` (relative stereo), for which the “L.M.A. MED” value in the assay with locomotor activity [1] and in the assay on locomotor activity [2] was 1 mg/kg each time. The “Ptosis MED” value in the assay with eyelid closure (ptosis) [3] and with eyelid closure (ptosis) [4] was 10 mg/kg each time. In addition, the “Catalepsy MED” value in the assay on catalepsy [5] is recorded as 30 mg/kg; in the assay on catalepsy [6], 10 mg/kg. Besides, the “T.B.Z.A. ED50” value in the assay with TBZ-induced ptosis [7] and with TBZ-induced ptosis [8] was > 100 mg/kg each time. In addition, in [9], the “Conflict MED” value was > 40 mg/kg. For the same compound, the “C.A.R. ED50” value in assay [10] is recorded as ~ 10 mg/kg; in [11], ~ 10 mg/kg; in assay [12] it was ~ 6 mg/kg. Moreover, the “Taming MED” value in the assay on taming is reported as 1 mg/kg. Also, the “P.Q.W. ED50” value in [13] is listed as 0.40 mg/kg.
As for `CN1CC[C@@H]2[C@@H](C1)c1cccc3c1N2c1ccccc1CC3` (relative stereo), the entries for the “L.M.A. MED” value in the assay with locomotor activity [1] and with locomotor activity [2] were 3 mg/kg and 1 mg/kg, respectively. In addition, the “Ptosis MED” value with eyelid closure (ptosis) [3] and in the assay on eyelid closure (ptosis) [4] was 10 mg/kg throughout. Further, the figures for the “Catalepsy MED” value in the assay on catalepsy [5] and in the assay with catalepsy [6] were 10 mg/kg and 3 mg/kg, respectively. For the same compound, the “T.B.Z.A. ED50” value with TBZ-induced ptosis [7] and in the assay with TBZ-induced ptosis [8] was > 100 mg/kg each time. Further, the “Conflict MED” value in [9] is recorded as > 40 mg/kg. The “C.A.R. ED50” value in assay [10], in assay [11] and in assay [12] was ~ 10 mg/kg each time. Moreover, in the assay with taming, the “Taming MED” value was 1 mg/kg. In [13], the “P.Q.W. ED50” value is given as 1.9 mg/kg.
Regarding `Cl.c1ccc2c(c1)CCc1cccc3c1N2[C@@H]1CCN(CC2CCCCC2)C[C@@H]31` (relative stereo), in assay [13], the “P.Q.W. ED50” value is 13 mg/kg.
